Earlier results on one compound are cited in paper PMC11284790, “Targeting Myeloperoxidase Ameliorates Gouty Arthritis: A Virtual Screening Success Story” (Journal of Medicinal Chemistry, 2024).

What is called IC50 is the concentration that inhibits the measured activity by half.

The test system of the data set is PARP1. The following applies: read-out: PARP1 IC50; cited from earlier work.

The structures appear in SMILES notation.

For the compound `Nc1ccc2c3c(cccc13)C(=O)NC2=O` [Compound 4ANI], the IC50 is 180 nM.
